Target: recombinant human liver glycogen phosphorylase (Homo sapiens, UniProt P06737)
Assay: Measuring liver glycogen phosphorylase activity (forward reaction system, NADPH absorbance at 340 nm)
Settings: class symbol, tested form: Na salt
Method: [Pharmacological Test] 1. Exemplary Test (1) Method for Measuring Liver Glycogen Phosphorylase Activity
The measurement of glycogen phosphorylase activity was carried out by a method using the forward reaction system.
The measurement of glycogen phosphorylase activity using the forward reaction system was carried out as follows. Glucose-1-phosphate prepared from glycogen by glycogen phosphorylase was converted into glucono-δ-lactone 6-phosphate through transphosphorylation and dehydrogenation using phosphoglucomutase and glucose-6-phosphate dehydrogenase (G6PDH). NADPH generated from NADP during the dehydrogenation by G6PDH was detected. […]
The enzymatic reaction was begun by adding 20 μL of the recombinant human liver glycogen phosphorylase solution and 20 μL of the mixture of phosphoglucomutase and G6PDH to the mixture of 20 μL of the glucose solution, 20 μL of the substrate, 100 μL of the buffer solution for reaction and 20 μL of the test compound solution. […] The absorbance at 340 nm was measured immediately after the reaction started. The absorbance at 340 nm was measured again after reacting at room temperature for 75 minutes. The enzymatic activity is a value obtained by subtracting the blank variation in absorbance over 75 minutes from the variation in absorbance over 75 minutes. […]

Amino acid sequences for entries named in this document (tags omitted).
UniProt P06737, whole entry: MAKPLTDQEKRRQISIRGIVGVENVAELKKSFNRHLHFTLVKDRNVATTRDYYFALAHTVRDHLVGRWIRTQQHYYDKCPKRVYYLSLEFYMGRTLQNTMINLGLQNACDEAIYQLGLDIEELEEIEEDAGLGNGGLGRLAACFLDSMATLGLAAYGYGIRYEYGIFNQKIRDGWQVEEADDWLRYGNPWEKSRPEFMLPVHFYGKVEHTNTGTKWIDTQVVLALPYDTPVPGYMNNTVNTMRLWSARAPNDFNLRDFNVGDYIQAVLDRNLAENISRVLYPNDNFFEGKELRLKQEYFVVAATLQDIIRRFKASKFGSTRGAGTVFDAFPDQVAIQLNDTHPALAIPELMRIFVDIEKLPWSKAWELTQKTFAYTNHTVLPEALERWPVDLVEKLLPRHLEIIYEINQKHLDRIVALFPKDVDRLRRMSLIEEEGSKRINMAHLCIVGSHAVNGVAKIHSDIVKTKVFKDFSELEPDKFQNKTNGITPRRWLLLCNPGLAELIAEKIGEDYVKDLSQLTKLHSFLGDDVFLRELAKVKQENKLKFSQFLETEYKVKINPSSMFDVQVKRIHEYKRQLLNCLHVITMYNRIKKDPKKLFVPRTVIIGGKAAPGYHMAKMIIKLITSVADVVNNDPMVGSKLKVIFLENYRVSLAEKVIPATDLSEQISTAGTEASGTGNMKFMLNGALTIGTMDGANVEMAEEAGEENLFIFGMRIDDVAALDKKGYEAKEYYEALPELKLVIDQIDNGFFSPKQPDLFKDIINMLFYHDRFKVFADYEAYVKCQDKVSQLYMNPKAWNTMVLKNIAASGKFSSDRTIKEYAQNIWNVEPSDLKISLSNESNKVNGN

## CN(C(=O)c1cc(NC(=O)c2cc(F)c(F)cc2Cl)[nH]n1)c1ccc(C(=O)NS(C)(=O)=O)cc1 [Example 6-5]
  IC50: < 100 nM
